Data reported in ChEMBL document CHEMBL1124450, “Identification of structural requirements for analogues of atrial natriuretic peptide (ANP) to discriminate between ANP receptor subtypes” (J Med Chem, 1989).

What was measured:
[1] = target: T1, Atrial natriuretic peptide receptor (Homo sapiens, UniProt P20594+P16066+P17342); experiment: Inhibitory activity against guanylate cyclase coupled receptor binding site in rabbit lung by using [125I]-ANP-(103-126); assay type: protein assay, Oryctolagus cuniculus; settings: target entry is the homologue from another species
T1 sequence (P20594 whole entry): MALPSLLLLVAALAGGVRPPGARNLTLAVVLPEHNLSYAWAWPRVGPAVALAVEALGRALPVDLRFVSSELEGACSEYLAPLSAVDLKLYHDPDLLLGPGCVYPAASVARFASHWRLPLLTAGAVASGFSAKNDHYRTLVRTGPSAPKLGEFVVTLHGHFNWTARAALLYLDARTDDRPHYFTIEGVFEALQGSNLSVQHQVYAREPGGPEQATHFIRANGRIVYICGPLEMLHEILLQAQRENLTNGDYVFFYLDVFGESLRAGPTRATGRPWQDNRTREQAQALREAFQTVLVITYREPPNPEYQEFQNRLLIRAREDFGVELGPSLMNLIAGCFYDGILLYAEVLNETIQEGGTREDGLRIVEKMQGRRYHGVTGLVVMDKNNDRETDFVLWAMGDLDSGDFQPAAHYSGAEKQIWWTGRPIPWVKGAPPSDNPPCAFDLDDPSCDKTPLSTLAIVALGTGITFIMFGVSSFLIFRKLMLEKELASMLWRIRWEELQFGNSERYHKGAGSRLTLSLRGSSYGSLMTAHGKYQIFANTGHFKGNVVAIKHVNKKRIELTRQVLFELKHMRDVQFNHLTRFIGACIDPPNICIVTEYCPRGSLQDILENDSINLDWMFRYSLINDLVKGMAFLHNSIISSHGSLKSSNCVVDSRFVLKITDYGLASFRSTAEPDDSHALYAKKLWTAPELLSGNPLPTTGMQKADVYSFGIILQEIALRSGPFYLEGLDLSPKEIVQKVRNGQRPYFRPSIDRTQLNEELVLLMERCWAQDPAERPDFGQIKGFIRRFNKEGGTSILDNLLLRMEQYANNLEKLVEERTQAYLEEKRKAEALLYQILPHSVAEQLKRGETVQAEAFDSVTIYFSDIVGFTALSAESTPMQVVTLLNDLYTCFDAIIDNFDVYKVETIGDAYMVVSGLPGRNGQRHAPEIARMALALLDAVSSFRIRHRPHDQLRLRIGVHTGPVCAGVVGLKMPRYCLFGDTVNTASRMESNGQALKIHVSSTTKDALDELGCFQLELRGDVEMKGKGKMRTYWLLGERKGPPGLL
T1 sequence (P16066 whole entry): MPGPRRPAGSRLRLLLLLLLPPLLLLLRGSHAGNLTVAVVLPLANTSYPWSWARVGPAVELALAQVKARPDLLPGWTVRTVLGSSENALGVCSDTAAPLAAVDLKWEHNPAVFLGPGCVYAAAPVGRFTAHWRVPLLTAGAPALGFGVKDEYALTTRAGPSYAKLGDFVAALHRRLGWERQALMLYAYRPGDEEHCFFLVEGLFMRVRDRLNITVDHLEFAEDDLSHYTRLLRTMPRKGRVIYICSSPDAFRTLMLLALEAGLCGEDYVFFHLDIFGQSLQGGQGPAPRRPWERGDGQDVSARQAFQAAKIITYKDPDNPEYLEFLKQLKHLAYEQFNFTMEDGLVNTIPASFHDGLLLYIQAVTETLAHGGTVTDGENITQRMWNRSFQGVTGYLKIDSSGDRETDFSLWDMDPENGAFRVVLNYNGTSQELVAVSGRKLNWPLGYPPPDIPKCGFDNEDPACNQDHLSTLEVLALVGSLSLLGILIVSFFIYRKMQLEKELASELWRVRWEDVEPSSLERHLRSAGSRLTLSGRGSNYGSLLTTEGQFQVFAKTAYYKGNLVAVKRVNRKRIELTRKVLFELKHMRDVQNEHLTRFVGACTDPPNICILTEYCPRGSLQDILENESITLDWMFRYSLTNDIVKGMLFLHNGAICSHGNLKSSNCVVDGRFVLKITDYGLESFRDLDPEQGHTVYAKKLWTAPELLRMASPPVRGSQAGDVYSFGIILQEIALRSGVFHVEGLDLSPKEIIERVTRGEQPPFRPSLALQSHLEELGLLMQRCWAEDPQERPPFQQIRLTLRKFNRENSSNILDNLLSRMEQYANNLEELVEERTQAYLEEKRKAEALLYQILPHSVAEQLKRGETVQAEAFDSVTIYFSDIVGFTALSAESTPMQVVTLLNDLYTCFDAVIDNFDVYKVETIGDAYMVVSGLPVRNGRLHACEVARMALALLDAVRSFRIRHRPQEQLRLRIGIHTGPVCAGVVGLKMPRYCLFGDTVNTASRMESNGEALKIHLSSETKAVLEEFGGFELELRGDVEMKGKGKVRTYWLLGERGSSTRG
T1 sequence (P17342 whole entry): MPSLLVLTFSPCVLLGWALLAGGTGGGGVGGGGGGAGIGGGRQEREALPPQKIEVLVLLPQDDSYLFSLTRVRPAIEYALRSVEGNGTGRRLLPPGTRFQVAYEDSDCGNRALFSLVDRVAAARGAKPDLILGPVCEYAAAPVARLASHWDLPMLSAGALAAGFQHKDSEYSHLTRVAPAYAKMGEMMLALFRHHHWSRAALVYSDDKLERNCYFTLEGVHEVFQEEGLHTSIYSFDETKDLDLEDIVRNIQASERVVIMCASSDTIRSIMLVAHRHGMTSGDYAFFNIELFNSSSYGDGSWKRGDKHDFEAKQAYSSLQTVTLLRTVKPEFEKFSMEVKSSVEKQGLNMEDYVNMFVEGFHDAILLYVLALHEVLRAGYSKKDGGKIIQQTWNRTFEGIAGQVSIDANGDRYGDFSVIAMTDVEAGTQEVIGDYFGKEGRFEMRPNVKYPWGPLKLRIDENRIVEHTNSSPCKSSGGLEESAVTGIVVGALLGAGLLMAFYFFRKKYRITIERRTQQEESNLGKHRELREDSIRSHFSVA

[2] = Ratio of IC50 of guanylate cyclase coupled receptor binding and non-guanylate cyclase coupled binding
[3] = Inhibitory activity against non-guanylate cyclase receptor binding site in rabbit lung by using [125I]-ANP-(103-126); set-up: species or system Oryctolagus cuniculus

CC[C@H](C)[C@@H]1NC(=O)[C@H](CCCN=C(N)N)NC(=O)[C@H](CC(=O)O)NC(=O)[C@H]([C@@H](C)CC)NC(=O)[C@H](CCCN=C(N)N)NC(=O)CNC(=O)CNC(=O)[C@H](Cc2ccccc2)NC(=O)[C@@H](NC(=O)[C@H](CO)NC(=O)[C@H](CO)NC(=O)[C@H](CCCN=C(N)N)NC(=O)[C@H](CCCN=C(N)N)NC(=O)[C@H](CC(C)C)NC(=O)[C@@H](N)CO)CSSC[C@@H](C(=O)N[C@@H](CC(N)=O)C(=O)N[C@@H](CO)C(=O)N[C@@H](Cc2ccccc2)C(=O)N[C@@H](CCCN=C(N)N)C(=O)N[C@@H](Cc2ccc(O)cc2)C(=O)O)NC(=O)CNC(=O)[C@H](CC(C)C)NC(=O)CNC(=O)[C@H](CO)NC(=O)[C@H](CCC(N)=O)NC(=O)[C@H](C)NC(=O)CNC1=O
IC50 [1]: 0.054 nM
Ratio [2]: 1
IC50 [3]: 0.054 nM
